# Laboratory results reported in PubChem BioAssay AID1645887 (National Center for Advancing Translational Sciences (NCATS), 2021).
# Chains of the proteins cited; added tags and fusions are not shown.
# UniProt Q8WZA2, whole entry: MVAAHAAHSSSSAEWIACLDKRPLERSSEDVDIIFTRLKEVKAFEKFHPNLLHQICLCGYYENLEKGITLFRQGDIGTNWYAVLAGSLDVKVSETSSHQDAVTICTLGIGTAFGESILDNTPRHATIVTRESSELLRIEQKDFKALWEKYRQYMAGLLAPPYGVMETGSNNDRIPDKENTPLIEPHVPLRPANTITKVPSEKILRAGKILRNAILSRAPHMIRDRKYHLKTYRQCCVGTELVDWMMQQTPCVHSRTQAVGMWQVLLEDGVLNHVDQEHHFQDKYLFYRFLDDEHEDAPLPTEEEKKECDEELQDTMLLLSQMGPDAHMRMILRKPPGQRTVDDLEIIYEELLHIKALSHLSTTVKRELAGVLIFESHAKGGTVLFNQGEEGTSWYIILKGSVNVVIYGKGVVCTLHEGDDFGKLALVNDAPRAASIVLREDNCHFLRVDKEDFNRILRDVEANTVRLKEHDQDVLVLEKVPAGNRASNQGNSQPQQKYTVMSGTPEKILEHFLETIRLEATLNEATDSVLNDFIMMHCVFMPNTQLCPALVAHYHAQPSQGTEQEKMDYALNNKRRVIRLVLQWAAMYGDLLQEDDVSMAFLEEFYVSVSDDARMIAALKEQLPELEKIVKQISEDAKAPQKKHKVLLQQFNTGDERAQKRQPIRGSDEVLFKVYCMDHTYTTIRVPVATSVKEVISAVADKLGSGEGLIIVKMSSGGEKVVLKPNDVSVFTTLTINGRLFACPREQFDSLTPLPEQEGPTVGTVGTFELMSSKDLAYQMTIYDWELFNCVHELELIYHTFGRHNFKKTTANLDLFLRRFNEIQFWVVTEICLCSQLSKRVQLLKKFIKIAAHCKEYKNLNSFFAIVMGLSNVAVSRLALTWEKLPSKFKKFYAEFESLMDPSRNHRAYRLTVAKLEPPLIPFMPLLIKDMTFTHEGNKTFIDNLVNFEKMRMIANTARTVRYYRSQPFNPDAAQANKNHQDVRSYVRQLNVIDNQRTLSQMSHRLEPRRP
# Values joined by “and” are separate entries in the source; they are usually repeats but may differ in a detail not shown here. Identical values can stand only once. Only a part is listed here, and it is no random draw. Active and inactive are the calls of the source. The call rests on the fitted dose curve; in most records, active means well fitted activation curve with a large enough effect; inconclusive means small, poorly fitted or top-dose-only effect, or another doubt; inactive means no such curve, though single readings can be large or run the other way.
# Target: Rap guanine nucleotide exchange factor 4 (Homo sapiens) (UniProt Q8WZA2)
# Assay: Validation qHTS for agonist of cAMP-regulated guanine nucleotide exchange factor 4 (EPAC2);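 further: exchange makes BODIPY-GDP fluorescence drop when released from Rap1B; series mostly up to about 150 µM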
# Settings: EPAC2 Rap1B BODIPY-GDP exchange, fluorescence; active compounds read high
# From the text: Principle Investigator: Xiaodong Cheng Ph.D.
# The University of Texas Medical Branch, […], TX
# In multi-cellular eukaryotic organisms, the effects of cAMP are transduced by two ubiquitously-expressed intracellular cAMP receptors, the classic protein kinase A/cAMP-dependent protein kinase (PKA/cAPK) and the more recently discovered exchange protein directly activated by cAMP/cAMP-regulated guanine nucleotide exchange factor (EPAC/cAMP-GEF). Both PKA and EPAC are ubiquitously expressed in all tissues, and an increase in intracellular cAMP levels will lead to the activation of both PKA and EPAC. Therefore, careful dissections of the individual role and relative contribution of EPAC and PKA within the overall cAMP signaling in various model systems are critical for further elucidating the mechanism of cAMP signaling. To date no EPAC-specific antagonists and agonist, as well as isoform-specific agonists have been reported, and developing EPAC-specific pharmacological probes to determine the physiological functions that EPAC play in the overall cAMP-mediated signaling remains a major challenge within the research field. Furthermore, identified regulators of EPAC may lead to new mechanism-based therapeutic strategies specifically targeting the EPAC / cAMP-signaling components as EPAC has been implicated to play important roles in major human pathological conditions such as diabetes, heart disease, and cancer.
# This qHTS will be used to screen the Molecular Libraries Small Molecule Repository (MLSMR) as a concentration-titration series using the NCGC unique quantitative screening (qHTS) platform to find activators for EPAC1. In addition, this assay will also be used as a counterscreen for the EPAC2 qHTS. This fluorescent based assay is developed and validated for EPAC1 that measures exchange using EPAC effector Rap1 complex with BODIPY-GDP, a GDP analog with a tethered fluorophores. Activators are identified by monitoring the change in fluorescence signal as the exchanged free BODIPY-GDP has a reduced fluorescence compared to Rap1-bound BODIPY-GDP. Increase in signal (activation) is the desired outcome for the EPAC1 agonist while no activity in this assay is desired for the EPAC2 agonist counterscreen.
# [1] de Rooij, J., Zwartkruis, F. J., Verheijen, M. H., Cool, R. H., Nijman, S. M., Wittinghofer, A., and Bos, J.L. (1998) Nature 396, 474-477.
# Briefly, three uL of reagents (100 nM EPAC2, 250 nM RAP1B-BODIPY-GDP, 50 uM GDP) were dispensed into a 1536-well Greiner black solid-bottom medium binding assay plate. Controls and test compounds (23 nL) were transferred to the plate via a Kalypsys pin tool equipped with a 1536-pin array. The plates were centrifuged at 1,000 rpm for 15 seconds followed by 5 minute incubation at room temperature. The assay plates were read at 5 minute intervals for 30 minutes in the ViewLux plate reader using 480nm excitation and 540nm emission filters. The results were normalized to the agonist positive control of 6.5 mM cAMP.
# On the % scale 0 is the no-effect control and ±100 the full control effect.
row,SMILES,activation
1,OCCSCCO,inactive: 10.1%
2,CC(C)OP(=O)(F)OC(C)C,inactive: -3.49%
3,CCOP(=O)(CC)Oc1ccc([N+](=O)[O-])cc1 (stereo unspecified),inactive: -16%
4,Cc1cccc([N+](=O)[O-])c1[N+](=O)[O-],inactive: -17.5%
5,C/C1=C2N=C(/C=C3N=C(/C(C)=C4\[N-][C@@](C)([C@@H]5N=C1[C@](C)(CCC(=O)NC[C@@H](C)OP(=O)([O-])O[C@H]1[C@@H](O)[C@@H](n6cnc7cc(C)c(C)cc76)O[C@@H]1CO)[C@H]5CC(N)=O)[C@@](C)(CC(N)=O)[C@@H]4CCC(N)=O)[C@@](C)(CC(N)=O)[C@@H]\3CCC(N)=O)C(C)(C)[C@@H]/2CCC(N)=O.[C-]#N.[Co+3],inactive: 7.5%
6,CCN(CCCl)Cc1ccccc1C,inactive: -14.2%
7,CC(C)N(CCCl)C(C)C,inactive: 5.45%
8,O=[N+]([O-])c1cccc([N+](=O)[O-])c1,inactive: 9.84% and inactive: -15.7%
9,O=[N+]([O-])OCC(CO[N+](=O)[O-])(CO[N+](=O)[O-])CO[N+](=O)[O-],inactive: 15%
10,O=[N+]([O-])[O-].[NH4+],inactive: 4.93%
11,CN(C)CCS,inactive: -13.6%
